Laboratory results from patent US20150141438A1, “METHODS FOR DELAYING OR PREVENTING THE ONSET OF TYPE 1 DIABETES” (Pharmacyclics, Inc., priority 2013, published 2015).

Tested on: anti-insulin B cells
Experiment: BTK inhibitor treatment of 125Tg/NOD mice (Ibrutinib chow); B cell subsets assessed by flow cytometry in freshly isolated organs
Format: in vivo, mouse
Conditions: Ibrutinib chow 5-10 weeks, placebo 83±32, p=0.57, no difference
Protocol: After 5-10 weeks, spleen, draining pancreatic lymph nodes, and pancreas were harvested and flow cytometry was used to analyze B cell subsets. […] Mice were 12-13 weeks old at time of analysis.
B cell subsets were assessed by flow cytometry in freshly isolated organs as outlined below.
BM was eluted from long bones, and spleens and pancreatic draining lymph nodes (PLN) were macerated with HBSS (Invitrogen) plus 10% FBS (HyClone). Red blood cells were lysed using Tris-NH4Cl. Freshly isolated pancreata were digested with 3 mL of 1 mg/mL collagenase P diluted in HBSS for 30 min at 37° C., then tissue was disrupted using an 18-gauge needle. Ice cold HBSS plus 10% FBS was immediately added to inhibit collagenase activity. Cells were directly analyzed by flow cytometry. Flow cytometry Ab reagents were reactive with B220 (6B2), IgM^a (DS-1), CD19 (1D3), CD21 (7G6), CD23 (B3B4), CD93 (AA4.1), or IgM chain-specific) (Life Technologies). Biotin N-hydroxysuccinimide ester (Sigma) was used to biotinylate human insulin (Sigma) at pH 8.0 in bicine buffer. Streptavidin reagents (BD Biosciences) were used to detect biotinylated reagents. 7AAD (BD Biosciences) was used to identify dead cells. Sample acquisition was performed using an LSR II flow cytometer (BD Biosciences) and FlowJo software (Treestar) was used for analysis. […]

C=CC(=O)N1CCC[C@@H](n2nc(-c3ccc(Oc4ccccc4)cc3)c3c(N)ncnc32)C1 [Ibrutinib, (R)-1-(3-(4-amino-3-(4-phenoxyphenyl)-1H-pyrazolo[3,4-d]pyrimidin-1-yl)piperidin-1-yl)prop-2-en-1-one]
T1 B cell subset numbers in the spleen: 63±47 ×104
